# Assay: Reversed-phase HPLC analysis of 30-min urine sample for metabolism
# Assay type: in vivo, human
# Conditions: 30-min urine sample of one volunteer, single peak
substance,measurement,value
^99mTc(CO)3-nitrilotriacetic acid [^99mTc(CO)3(NTA)],metabolism / form excreted in urine,excreted unchanged in the urine

# Source: article PMC2852246 (Journal of nuclear medicine : official publication, Society …, 2010)
